# Apparent affinities of Ab-14 variants for a coronavirus HR2 peptide

Target: peptide PDVDLGDISGINAS, taken from heptad repeat 2 (HR2) of SARS-CoV-2 spike.

Parent: Ab-14, a human scFv built as VH, a 15-residue (Gly4Ser)3 linker, VL. Only the CDRs of the light chain vary.
VH: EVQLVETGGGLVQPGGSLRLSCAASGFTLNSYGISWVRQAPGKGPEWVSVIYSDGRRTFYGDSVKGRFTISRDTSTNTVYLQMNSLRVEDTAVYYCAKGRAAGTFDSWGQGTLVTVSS
VL: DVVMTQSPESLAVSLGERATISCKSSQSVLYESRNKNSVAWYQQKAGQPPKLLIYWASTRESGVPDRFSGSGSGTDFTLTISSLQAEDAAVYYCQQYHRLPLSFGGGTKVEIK

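The starting antibody came from a phage panning campaign against this peptide. Designed CDR sequences, proposed from the first random library and measured here. Group labels follow the data file (Ctrl: baseline library sampled from a position-specific scoring matrix, with some repeated check sequences; En: ensemble of fine-tuned language models; GP: Gaussian process model; HC: hill climbing; Gen: genetic algorithm; Gibbs: Gibbs sampling; a sequence that several methods proposed may carry one label only). AlphaSeq pools MATa yeast showing the antibodies with MATalpha yeast showing the peptide. Pairs that bind mate more often; barcode pairs of the diploids are counted by sequencing. Read counts were normalised to the haploid input and turned into Kd by a linear fit to BCL2-family pairs of known affinity, for each replicate. Mating was done six times.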

Variants are written as CDR1, CDR2 and CDR3 of the light chain (limits as in the source). Parent: KSSQSVLYESRNKNSVA, WASTRES, QQYHRLPLS.
Numbers give log10(Kd / nM), so 0 is 1 nM and 3 is 1 µM. Smaller is tighter.
A mean of the replicates is given; it leaves out those without a signal.
"n.d." marks a missing value. The strain was present, yet no cells mated with the target were sequenced in that replicate, which points to weak or no binding.
The list is sorted by this average, lowest first, undetected variants last.
A sequence measured in both rounds can read differently, since the two assays cover different ranges.
The authors averaged sequences with at least three values out of six and counted those with two or fewer as poor binders.
As a blank, each scFv also met three strains without target: over all light chain designs, 4% of these pairings were detected, typically at 2.64 and seldom below 1.59.

CDR-L1,CDR-L2,CDR-L3,group,"replicates, log10 nM","log10 Kd (nM), mean"
KFSQSFLYESRNFNSVA,GASTRES,QQYHRLPLS,GP_HC,-0.17 -0.58 -0.38 -0.41 -0.46 -0.32,-0.38
KSSTSGLYESRNKNSVA,EASTRES,QQYHRLPLS,GP_HC,-0.13 -0.16 -0.51 -0.61 -0.42 -0.17,-0.33
KVSQSVLYESRNGNSVA,NASTRES,QQYHRLPLS,GP_Gen,-0.41 -0.04 -0.21 -0.39 -0.46 -0.27,-0.30
KLSQSQEYESRNKNSVA,DASQRLV,QQYHRLPLS,GP_Gibbs,-0.09 -0.25 -0.36 -0.55 -0.20 -0.14,-0.27
KLEQSSLYESRNKNSVA,NASTRES,QQYHRLPLS,GP_Gen,-0.20 -0.35 -0.34 -0.27 -0.38 -0.04,-0.26
KFSQSVLYEERNKNSVA,NASQRES,QQYHRLPLS,GP_Gen,-0.03 -0.24 -0.27 -0.29 -0.34 0.09,-0.18
KSDQSALYESRNKNSVA,GASTRES,QQYHRLPLS,GP_HC,0.05 -0.11 -0.27 -0.41 0.22 0.00,-0.09
KAMQMVWQESRNKNSVA,NASTRMQ,QQYHRLPLS,GP_Gibbs,0.21 0.15 -0.36 0.03 -0.01 -0.33,-0.05
KSSQSVLIQSRNKNSVA,DASTRES,QQYHRLPLS,GP_HC,0.01 -0.06 -0.04 -0.15 -0.12 0.10,-0.04
KISQDYEYESRNKNSVA,SASTRMV,QQYHRLPLS,GP_Gibbs,0.10 0.25 0.02 -0.08 -0.24 -0.01,0.01
KLMTSDLYESRNVNSVA,EASTRMD,QQYHRLPLS,GP_Gibbs,0.16 0.07 -0.09 -0.03 -0.14 0.11,0.01
HSNGQLVMGERNQNHVA,STDVRAS,QQYSRLPFT,En_Gibbs,0.04 0.05 0.02 -0.10 0.06 0.13,0.03
KSGISYLEESRNKNSVA,EASTRES,QQYHRLPLS,GP_HC,0.21 0.05 0.04 -0.17 -0.10 0.21,0.04
KLSQSVLYESRQKNSVA,NASQRMS,QQYHRLPLS,GP_Gen,0.15 -0.04 0.19 -0.03 -0.07 0.14,0.06
KLSQSSLYESRNKNSVA,NASTRLS,QQYHRLPLS,GP_Gen,0.21 -0.05 0.17 -0.12 0.08 0.30,0.10
KISMLSENQLKNRNSVA,ELVTRVN,QQYNRLPLS,En_Gen,0.46 0.08 0.23 0.09 -0.18 0.14,0.14
KSSWSVLLESRNKNSVA,DASTRSS,QQYHRLPLS,GP_HC,0.32 0.12 0.16 0.12 0.22 0.19,0.19
KSSISYLYESRNKNAVA,AASTRES,QQYHRLPLS,GP_HC,0.43 0.20 0.20 0.09 0.08 0.21,0.20
KISQSVLGEWRNKNSVA,DASTRES,QQYHRLPLS,GP_HC,0.41 0.03 -0.03 0.25 0.20 0.39,0.21
KLSQSVLYESRNKGSVA,NASTRES,QQYHRLPLS,GP_Gen,n.d. 0.25 n.d. n.d. n.d. n.d.,0.25
KLSQSMLYESRNKNSVA,NASYRES,QQYHRLPLS,GP_Gen,0.44 0.04 0.15 0.53 0.21 0.31,0.28
MLSLNLHDMDANINNVA,EMNKLTA,QDYHRLPLH,En_Gibbs,0.43 0.27 0.25 0.18 0.19 0.86,0.36
TISGLILMPSRNKNNVA,NTSTRYS,QQYHRLPLS,En_HC,0.18 0.61 0.58 0.27 0.42 0.69,0.46
KISQMVTYESTWHSAIA,QTSEREE,QQYHRLPLS,En_HC,1.11 0.54 0.36 0.46 0.26 0.06,0.46
KSSQSVLYESRNKNSVA,AASTRES,QQYKRLPLS,Ctrl,0.81 0.58 0.53 0.48 0.26 0.54,0.53
KVSQSVLYESRNKNSVA,EGSTRES,QQYHRLPLS,GP_Gen,0.72 0.67 0.26 0.59 0.72 0.83,0.63
KMSPSYLYEDRAFNSVA,NASTREQ,QQYHRLPLS,GP_Gibbs,0.90 0.64 0.53 1.04 0.29 0.77,0.69
TISQSTYWEQFNKNNVA,QTSTREE,QDYDRLPLS,En_HC,0.37 0.89 0.75 0.51 0.96 1.06,0.76
KISQMIRVGSTASNSIA,EEVTRAK,QQYHRLPLS,En_Gen,0.88 0.80 0.68 0.65 1.22 0.97,0.87
MFSQLTYTGSRARNAVA,QAETREN,QQYHHLPLS,En_HC,1.27 1.30 1.39 1.12 1.11 0.90,1.18
KVYQSHLYESRNDNNVA,QASYRES,QQYHRLPLS,GP_Gibbs,1.01 1.64 1.73 0.73 1.73 0.71,1.26
KSSQSVLEESWNKNSVA,NASTRES,QQYHRLPLH,Ctrl,2.20 1.18 0.95 1.29 0.99 1.06,1.28
MLDMNLSYGDNLQNRIA,EANHLET,QQYAHLPLG,En_Gibbs,n.d. 1.21 0.74 0.74 0.47 3.71,1.37
KLSMSYRYESEVKNSIA,ELVTRMS,QQYHRLPLS,En_HC,1.39 1.36 1.12 1.91 1.57 1.42,1.46
VLGGQWGLGTTQNSSVA,NVSETML,QQYNRLPLM,En_Gibbs,2.21 1.92 0.82 1.27 1.44 1.57,1.54
KLQYLVLYGSRNKNSVA,GASTRLQ,QQYHRLPLS,GP_Gibbs,1.39 1.76 1.85 1.77 2.44 2.07,1.88
KSSQSNLYESRNKNSVA,WASTRES,QQYHRLPLS,Ctrl,1.24 2.01 1.95 2.14 2.13 3.33,2.14
IVSQLMLWGYKAKNSIA,EAELRTN,QQYDRLPLF,En_Gen,n.d. n.d. n.d. n.d. 3.14 n.d.,3.14
SSSQSLLYESRNKNSIA,WASTRES,QQYHRLPLI,Ctrl,n.d. n.d. n.d. n.d. n.d. n.d.,n.d.
KSSESVLYESRNKNSVA,WASTRES,QQYHRLMLS,Ctrl,n.d. n.d. n.d. n.d. n.d. n.d.,n.d.
KSQQSVLNESRNIQSVA,HASTRPP,QQPHRLPES,Ctrl,n.d. n.d. n.d. n.d. n.d. n.d.,n.d.

5 of these entries, quoted again:

CDR-L1	CDR-L2	CDR-L3	group	replicates, log10 nM	log10 Kd (nM), mean
KLSQSMLYESRNKNSVA	NASYRES	QQYHRLPLS	GP_Gen	0.44 0.04 0.15 0.53 0.21 0.31	0.28
KLSQSQEYESRNKNSVA	DASQRLV	QQYHRLPLS	GP_Gibbs	-0.09 -0.25 -0.36 -0.55 -0.20 -0.14	-0.27
KSSQSVLYESRNKNSVA	AASTRES	QQYKRLPLS	Ctrl	0.81 0.58 0.53 0.48 0.26 0.54	0.53
MLDMNLSYGDNLQNRIA	EANHLET	QQYAHLPLG	En_Gibbs	n.d. 1.21 0.74 0.74 0.47 3.71	1.37
KSSQSVLEESWNKNSVA	NASTRES	QQYHRLPLH	Ctrl	2.20 1.18 0.95 1.29 0.99 1.06	1.28

Data: MIT Lincoln Laboratory AlphaSeq set, Li et al. 2023, doi:10.1038/s41467-023-39022-2, as distributed in FLAb.